Experimental data taken from paper PMC11836371, “Virtual fragment screening for DNA repair inhibitors in vast chemical space” (Nature Communications, 2025).
Values joined by “and” are separate entries in the source; they are usually repeats but may differ in a detail not shown here. Identical values can stand only once.

Protein sequences, listed by entry. Tags and fused reporters are not part of them.
UniProt O15527, whole entry: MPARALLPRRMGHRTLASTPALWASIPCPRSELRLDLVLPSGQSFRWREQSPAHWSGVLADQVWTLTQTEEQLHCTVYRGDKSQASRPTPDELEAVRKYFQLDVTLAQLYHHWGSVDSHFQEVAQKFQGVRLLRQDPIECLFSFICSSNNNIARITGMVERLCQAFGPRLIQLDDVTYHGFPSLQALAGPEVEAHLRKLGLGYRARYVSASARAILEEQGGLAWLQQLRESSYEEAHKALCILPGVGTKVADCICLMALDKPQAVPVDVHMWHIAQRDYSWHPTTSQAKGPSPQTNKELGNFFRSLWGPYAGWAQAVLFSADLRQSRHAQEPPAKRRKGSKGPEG

How the values were obtained:
OGG1-GFP in U2OS cells = target: T1, OGG1-GFP in U2OS cells (Homo sapiens, UniProt O15527); assay: Laser microirradiation assay (OGG1-GFP recruitment to DNA damage sites); type: cell-based; settings: 10uM TH5487; for relative OGG1-GFP intensity at laser microirradiation site (Figure3E), normalised to time 0: one column per replicate; for OGG1-GFP recruitment, relative intensity normalised to time 0 (Figure3E): individual replicates
T1 construct: expressed in transfected cells

[1] = Caco-2 cell permeability assay; type: in vitro ADME; settings: human, Caco-2, pH 7.4
Description: Prior to the experiment a drug solution of 10 µM was prepared and warmed to 37 °C. The Caco-2 filters were washed with pre-warmed HBSS prior to the experiment, and thereafter the experiment was started by applying the donor solution on the apical or basolateral side. The transport experiments were carried out at pH 7.4 in both the apical and basolateral chamber. The experiments were performed at 37 °C and with a stirring rate of 500 rpm. The receiver compartment was sampled at 15, 30, and 60 min, and at 60 min also a final sample from the donor chamber was taken to calculate the mass balance of the compound. The samples (100 µL) were transferred to a 96-well plate containing 100 µL methanol and Warfarin as IS and was sealed until analyzed by liquid chromatography coupled to triple quadrupole mass spectrometry (LC-MS/MS).

Structure (SMILES): O=C(Nc1ccc(I)cc1)N1CCC(n2c(=O)[nH]c3c(Br)cccc32)CC1 [TH5487]
- relative OGG1-GFP intensity at laser microirradiation site (Figure3E), normalised to time 0 (OGG1-GFP in U2OS cells; time 44 s): 1.31 (2×) and 1.34 and 1.29 and 1.22 and 1.38 and 1.3 and 1.42 and 1.18 and 1.24 and 1.39 and 1.32 and 1.26 and 1.4 and 1.43
- relative OGG1-GFP intensity at laser microirradiation site (Figure3E), normalised to time 0 (OGG1-GFP in U2OS cells; time 46 s): 1.33 (2×) and 1.34 (2×) and 1.28 and 1.23 and 1.4 and 1.44 (2×) and 1.2 and 1.25 and 1.38 and 1.24 and 1.32 and 1.39
- relative OGG1-GFP intensity at laser microirradiation site (Figure3E), normalised to time 0 (OGG1-GFP in U2OS cells; time 48 s): 1.34 (2×) and 1.31 and 1.25 (2×) and 1.38 and 1.3 (2×) and 1.44 and 1.21 and 1.4 (2×) and 1.32 and 1.26 and 1.43
- relative OGG1-GFP intensity at laser microirradiation site (Figure3E), normalised to time 0 (OGG1-GFP in U2OS cells; time 50 s): 1.34 and 1.33 (3×) and 1.29 and 1.23 and 1.39 and 1.43 (2×) and 1.2 and 1.24 and 1.38 and 1.27 and 1.3 and 1.41
- relative OGG1-GFP intensity at laser microirradiation site (Figure3E), normalised to time 0 (OGG1-GFP in U2OS cells; time 52 s): 1.33 (4×) and 1.35 and 1.28 and 1.23 and 1.38 and 1.42 and 1.21 and 1.25 and 1.41 and 1.27 and 1.4 and 1.47
- relative OGG1-GFP intensity at laser microirradiation site (Figure3E), normalised to time 0 (OGG1-GFP in U2OS cells; time 54 s): 1.34 (2×) and 1.35 and 1.29 and 1.25 and 1.41 (3×) and 1.2 and 1.24 and 1.39 and 1.32 (2×) and 1.26 and 1.45
- relative OGG1-GFP intensity at laser microirradiation site (Figure3E), normalised to time 0 (OGG1-GFP in U2OS cells; time 56 s): 1.33 (3×) and 1.3 and 1.23 and 1.38 and 1.34 and 1.43 and 1.2 and 1.26 (2×) and 1.39 and 1.31 and 1.4 and 1.44
- relative OGG1-GFP intensity at laser microirradiation site (Figure3E), normalised to time 0 (OGG1-GFP in U2OS cells; time 58 s): 1.33 and 1.34 and 1.3 and 1.23 and 1.39 and 1.31 (3×) and 1.42 and 1.2 and 1.26 and 1.4 and 1.27 and 1.37 and 1.45
- relative OGG1-GFP intensity at laser microirradiation site (Figure3E), normalised to time 0 (OGG1-GFP in U2OS cells; time 60 s): 1.33 (2×) and 1.32 (2×) and 1.24 (2×) and 1.4 (2×) and 1.31 and 1.44 (2×) and 1.19 and 1.26 and 1.3 and 1.39
- relative OGG1-GFP intensity at laser microirradiation site (Figure3E), normalised to time 0 (OGG1-GFP in U2OS cells; time 62 s): 1.33 (2×) and 1.29 and 1.24 and 1.38 and 1.31 and 1.43 (2×) and 1.2 and 1.26 and 1.39 and 1.32 and 1.25 and 1.3 and 1.4
- relative OGG1-GFP intensity at laser microirradiation site (Figure3E), normalised to time 0 (OGG1-GFP in U2OS cells; time 64 s): 1.33 (3×) and 1.29 and 1.24 (2×) and 1.38 and 1.44 and 1.21 and 1.4 and 1.32 (2×) and 1.26 and 1.37 and 1.45
- relative OGG1-GFP intensity at laser microirradiation site (Figure3E), normalised to time 0 (OGG1-GFP in U2OS cells; time 66 s): 1.33 (4×) and 1.3 and 1.25 (3×) and 1.39 (2×) and 1.46 and 1.22 and 1.32 and 1.37 and 1.45
- relative OGG1-GFP intensity at laser microirradiation site (Figure3E), normalised to time 0 (OGG1-GFP in U2OS cells; time 68 s): 1.33 (2×) and 1.34 and 1.29 and 1.24 and 1.37 and 1.31 and 1.43 and 1.2 and 1.25 (2×) and 1.4 and 1.32 and 1.38 and 1.45
- relative OGG1-GFP intensity at laser microirradiation site (Figure3E), normalised to time 0 (OGG1-GFP in U2OS cells; time 70 s): 1.35 and 1.32 (2×) and 1.29 and 1.24 and 1.38 and 1.31 and 1.43 (2×) and 1.2 and 1.25 and 1.39 (2×) and 1.26 and 1.3
- relative OGG1-GFP intensity at laser microirradiation site (Figure3E), normalised to time 0 (OGG1-GFP in U2OS cells; time 72 s): 1.33 and 1.31 and 1.29 and 1.24 and 1.37 and 1.32 (2×) and 1.44 (2×) and 1.21 and 1.25 (2×) and 1.38 and 1.3 and 1.36
- relative OGG1-GFP intensity at laser microirradiation site (Figure3E), normalised to time 0 (OGG1-GFP in U2OS cells; time 74 s): 1.34 and 1.31 (2×) and 1.28 and 1.23 and 1.39 and 1.32 (2×) and 1.43 and 1.2 and 1.25 and 1.4 and 1.24 and 1.37 and 1.46
- relative OGG1-GFP intensity at laser microirradiation site (Figure3E), normalised to time 0 (OGG1-GFP in U2OS cells; time 76 s): 1.34 (2×) and 1.31 and 1.24 (2×) and 1.37 and 1.32 (3×) and 1.41 and 1.2 and 1.25 and 1.39 and 1.38 and 1.47
- relative OGG1-GFP intensity at laser microirradiation site (Figure3E), normalised to time 0 (OGG1-GFP in U2OS cells; time 78 s): 1.34 and 1.31 (3×) and 1.24 (2×) and 1.37 and 1.33 and 1.42 and 1.19 and 1.25 and 1.38 (2×) and 1.3 and 1.44
- relative OGG1-GFP intensity at laser microirradiation site (Figure3E), normalised to time 0 (OGG1-GFP in U2OS cells; time 80 s): 1.33 (2×) and 1.34 and 1.32 (3×) and 1.24 (2×) and 1.37 and 1.4 and 1.21 and 1.25 and 1.38 and 1.36 and 1.43
- relative OGG1-GFP intensity at laser microirradiation site (Figure3E), normalised to time 0 (OGG1-GFP in U2OS cells; time 82 s): 1.33 (2×) and 1.31 (2×) and 1.26 and 1.36 (2×) and 1.42 and 1.19 and 1.24 (2×) and 1.39 and 1.32 (2×) and 1.43
- relative OGG1-GFP intensity at laser microirradiation site (Figure3E), normalised to time 0 (OGG1-GFP in U2OS cells; time 84 s): 1.33 and 1.29 and 1.31 (4×) and 1.24 (2×) and 1.36 (2×) and 1.41 and 1.19 and 1.25 and 1.39 and 1.44
- relative OGG1-GFP intensity at laser microirradiation site (Figure3E), normalised to time 0 (OGG1-GFP in U2OS cells; time 86 s): 1.34 and 1.3 (2×) and 1.32 (2×) and 1.24 (2×) and 1.39 and 1.33 and 1.41 and 1.2 and 1.22 and 1.42 and 1.38 and 1.44
- relative OGG1-GFP intensity at laser microirradiation site (Figure3E), normalised to time 0 (OGG1-GFP in U2OS cells; time 88 s): 1.34 and 1.32 (2×) and 1.31 (3×) and 1.25 and 1.37 and 1.42 (2×) and 1.19 and 1.23 and 1.39 (2×) and 1.24
- relative OGG1-GFP intensity at laser microirradiation site (Figure3E), normalised to time 0 (OGG1-GFP in U2OS cells; time 90 s): 1.34 and 1.32 and 1.31 (3×) and 1.24 (2×) and 1.38 and 1.33 and 1.39 and 1.2 and 1.4 and 1.23 and 1.37 and 1.43
- relative OGG1-GFP intensity at laser microirradiation site (Figure3E), normalised to time 0 (OGG1-GFP in U2OS cells; time 92 s): 1.33 (2×) and 1.29 and 1.31 (2×) and 1.24 and 1.38 and 1.41 and 1.2 and 1.25 and 1.39 and 1.23 and 1.32 and 1.35 and 1.45
- OGG1-GFP recruitment, relative intensity normalised to time 0 (Figure3E) (OGG1-GFP in U2OS cells; time 94 s): 1.34 and 1.31 and 1.32 and 1.24 and 1.37 (2×) and 1.33 (2×) and 1.42 and 1.2 and 1.23 and 1.39 and 1.22 and 1.3 and 1.43
- OGG1-GFP recruitment, relative intensity normalised to time 0 (Figure3E) (OGG1-GFP in U2OS cells; time 96 s): 1.34 and 1.3 (2×) and 1.22 and 1.37 and 1.31 (2×) and 1.42 and 1.18 and 1.23 (2×) and 1.38 and 1.32 and 1.36 and 1.41
- OGG1-GFP recruitment, relative intensity normalised to time 0 (Figure3E) (OGG1-GFP in U2OS cells; time 98 s): 1.32 (4×) and 1.29 and 1.25 and 1.38 (2×) and 1.43 (2×) and 1.19 and 1.23 and 1.21 and 1.31 and 1.36
- OGG1-GFP recruitment, relative intensity normalised to time 0 (Figure3E) (OGG1-GFP in U2OS cells; time 100 s): 1.34 and 1.31 (2×) and 1.33 (2×) and 1.24 and 1.36 and 1.42 and 1.19 and 1.23 (2×) and 1.37 (2×) and 1.32 and 1.43
- OGG1-GFP recruitment, relative intensity normalised to time 0 (Figure3E) (OGG1-GFP in U2OS cells; time 102 s): 1.33 and 1.3 and 1.31 (2×) and 1.24 and 1.37 (2×) and 1.32 (2×) and 1.41 and 1.2 and 1.23 and 1.4 and 1.22 and 1.44
- OGG1-GFP recruitment, relative intensity normalised to time 0 (Figure3E) (OGG1-GFP in U2OS cells; time 104 s): 1.33 and 1.3 (2×) and 1.24 and 1.37 and 1.28 and 1.41 and 1.18 and 1.23 and 1.38 and 1.31 (2×) and 1.21 and 1.36 and 1.42
- OGG1-GFP recruitment, relative intensity normalised to time 0 (Figure3E) (OGG1-GFP in U2OS cells; time 106 s): 1.33 and 1.3 (2×) and 1.31 (2×) and 1.24 and 1.37 and 1.41 (2×) and 1.19 and 1.22 (2×) and 1.38 and 1.32 and 1.35
- OGG1-GFP recruitment, relative intensity normalised to time 0 (Figure3E) (OGG1-GFP in U2OS cells; time 108 s): 1.31 and 1.29 (2×) and 1.3 (2×) and 1.25 and 1.39 and 1.41 (2×) and 1.18 and 1.22 (2×) and 1.38 and 1.32 and 1.37
- OGG1-GFP recruitment, relative intensity normalised to time 0 (Figure3E) (OGG1-GFP in U2OS cells; time 110 s): 1.32 (2×) and 1.3 (2×) and 1.24 (2×) and 1.36 and 1.4 and 1.2 and 1.38 and 1.31 and 1.23 and 1.33 and 1.37 and 1.41
- OGG1-GFP recruitment, relative intensity normalised to time 0 (Figure3E) (OGG1-GFP in U2OS cells; time 112 s): 1.31 (2×) and 1.29 and 1.28 and 1.23 (2×) and 1.36 and 1.39 and 1.19 and 1.4 and 1.3 and 1.22 and 1.32 and 1.37 and 1.42
- OGG1-GFP recruitment, relative intensity normalised to time 0 (Figure3E) (OGG1-GFP in U2OS cells; time 114 s): 1.33 and 1.3 (3×) and 1.32 and 1.25 and 1.36 (2×) and 1.4 (3×) and 1.18 and 1.24 and 1.21 and 1.31
- OGG1-GFP recruitment, relative intensity normalised to time 0 (Figure3E) (OGG1-GFP in U2OS cells; time 116 s): 1.32 and 1.3 (3×) and 1.31 and 1.24 and 1.38 (2×) and 1.39 and 1.18 and 1.22 and 1.21 and 1.33 and 1.36 and 1.42
- OGG1-GFP recruitment, relative intensity normalised to time 0 (Figure3E) (OGG1-GFP in U2OS cells; time 118 s): 1.31 (2×) and 1.3 (2×) and 1.23 and 1.36 and 1.32 (2×) and 1.4 and 1.17 and 1.24 and 1.38 and 1.22 and 1.35 and 1.42
- OGG1-GFP recruitment, relative intensity normalised to time 0 (Figure3E) (OGG1-GFP in U2OS cells; time 120 s): 1.29 (2×) and 1.3 (3×) and 1.22 and 1.36 (2×) and 1.38 (2×) and 1.19 and 1.25 and 1.23 and 1.33 and 1.4
- efflux ratio at 60 min, 10 µM [1]: 1.16
